Reference: patent publication US20260382728A1, “MODIFIED PROTEINS AND PROTEIN BINDERS AND DEGRADERS” (published 2026)

Protein sequences, listed by entry. Tags and fused reporters are not part of them. Residues count along the entry.
UniProt P03372, whole entry: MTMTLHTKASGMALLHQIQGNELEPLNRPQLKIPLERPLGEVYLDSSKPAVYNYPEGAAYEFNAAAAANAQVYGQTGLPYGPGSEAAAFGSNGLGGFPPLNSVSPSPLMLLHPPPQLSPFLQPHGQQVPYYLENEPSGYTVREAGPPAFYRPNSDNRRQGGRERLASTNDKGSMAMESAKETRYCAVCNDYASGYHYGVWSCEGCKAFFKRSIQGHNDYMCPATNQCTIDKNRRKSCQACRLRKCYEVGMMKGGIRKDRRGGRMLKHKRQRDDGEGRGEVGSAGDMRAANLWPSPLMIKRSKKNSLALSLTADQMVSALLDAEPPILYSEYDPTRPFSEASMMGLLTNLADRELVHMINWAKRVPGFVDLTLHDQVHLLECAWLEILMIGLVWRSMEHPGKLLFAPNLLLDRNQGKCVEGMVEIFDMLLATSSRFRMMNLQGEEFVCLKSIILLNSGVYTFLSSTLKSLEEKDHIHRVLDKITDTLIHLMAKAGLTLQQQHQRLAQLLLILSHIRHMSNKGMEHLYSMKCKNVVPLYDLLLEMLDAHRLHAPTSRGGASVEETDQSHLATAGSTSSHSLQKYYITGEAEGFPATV
UniProt P11802, whole entry: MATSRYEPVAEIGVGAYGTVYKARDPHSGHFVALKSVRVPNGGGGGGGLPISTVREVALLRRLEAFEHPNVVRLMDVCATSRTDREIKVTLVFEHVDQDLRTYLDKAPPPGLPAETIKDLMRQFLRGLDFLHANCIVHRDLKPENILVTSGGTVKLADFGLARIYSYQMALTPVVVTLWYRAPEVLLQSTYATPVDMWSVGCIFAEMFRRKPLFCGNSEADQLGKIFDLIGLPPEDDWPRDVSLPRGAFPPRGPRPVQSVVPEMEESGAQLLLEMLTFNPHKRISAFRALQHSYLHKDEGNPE
UniProt Q9Y4B6, 1058-1396: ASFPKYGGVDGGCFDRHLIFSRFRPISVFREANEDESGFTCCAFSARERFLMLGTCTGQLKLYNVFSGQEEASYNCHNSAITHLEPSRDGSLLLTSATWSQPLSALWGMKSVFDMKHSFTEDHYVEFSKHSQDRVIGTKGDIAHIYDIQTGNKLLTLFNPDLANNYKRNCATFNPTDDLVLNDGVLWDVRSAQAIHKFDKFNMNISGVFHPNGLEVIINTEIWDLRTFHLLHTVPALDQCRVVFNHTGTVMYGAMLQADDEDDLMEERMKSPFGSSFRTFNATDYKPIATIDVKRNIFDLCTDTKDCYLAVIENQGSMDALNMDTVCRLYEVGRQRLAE

What was measured:
ERα [1] = target: T1, ERα (Homo sapiens, UniProt P03372); test: ERα degradation in T47D cells; conditions: serum starved 2 hours, 24 hours, serum-free
CDK4 [2] = target: T2, CDK4 (Homo sapiens, UniProt P11802); test: CDK4 degradation in T47D cells (immunoblotting); conditions: 16 hours
cyclin D1 [3] = test: Cyclin D1 degradation in T47D cells (immunoblotting); conditions: 16 hours
cyclin D1 [4] = test: cyclin D1 protein levels in T47D and Calu-1 cells (PF-06873600-based compounds); conditions: 16-hour treatment
CDK4 [5] = target: T2, CDK4; test: CDK4 protein levels in T47D and Calu-1 cells (PF-06873600-based compounds); conditions: 16-hour treatment
DCAF1 (1058-1396) [6] = target: T3, DCAF1 (1058-1396) (Homo sapiens, UniProt Q9Y4B6); test: covalent binding by intact mass spectrometry analysis; conditions: DCAF1 5 μM, compound 200 μM, 8 h at rt
DCAF1 (1058-1396) [7] = target: T3, DCAF1 (1058-1396); test: Covalent binding to DCAF1 by intact mass spectrometry; conditions: 200 μM compound, 5 μM DCAF1, 8 h, rt
cyclin D1 [8] = test: cyclin D1 protein levels in T47D cells (palbociclib-based compounds); conditions: 16 hours
CDK4 [9] = target: T2, CDK4; test: CDK4 degradation in MOLT-4 cells (immunoblotting); conditions: 8 hours
BRD4 [10] = target: T4, BRD4 (Homo sapiens, UniProt O60885); test: BRD4 degradation in MV4;11 cells (immunoblotting)
CDK4 [11] = target: T2, CDK4; test: CDK4 protein levels in MOLT-4 cells by immunoblotting; conditions: 8 hours
MV4;11 cells = test: Cell viability inhibition of MV4;11 cells (CellTiter-Glo); conditions: read-out: Cell viability inhibition IC50, 3 days, 3-fold serial dilution
ERα [12] = target: T1, ERα; test: ERα protein levels in T47D cells (lasofoxifene-based compounds); conditions: 24-hour treatment, serum-free, 1 μM
cyclin D1 [13] = test: cyclin D1 protein levels in MDA-MB-157 cells (PF-07220060-based compounds); conditions: 16-hour treatment
BRD4 [14] = target: T4, BRD4; test: BRD4 protein levels in MV4;11 cells; conditions: 10 μM, FIG. 5B

O=C(NCCOc1ccc([C@@H]2c3ccc(O)cc3CC[C@@H]2c2ccccc2)cc1)c1ccnc(N2CCC3(CCN(c4ccccc4)C3)C2)c1 (stereo partly shown)
% ERα Degradation (at 1 μM) (ERα [1]): C (20% ≤ C < 40%)

C[C@@]1(O)CCC[C@H]1n1c(=O)c(C(F)F)cc2cnc(NC3CCN(S(C)(=O)=O)CC3)nc21
% CDK4 Degradation (at 1 μM) (CDK4 [2]): D (D < 20%)
% Cyclin D1 Degradation (at 1 μM) (cyclin D1 [3]): D (D < 20%)
cyclin D1 protein levels (cyclin D1 [4]): didn't affect cyclin D1 and CDK4 protein levels at indicated concentrations
CDK4 protein levels (CDK4 [5]): didn't affect cyclin D1 and CDK4 protein levels at indicated concentrations

O=C(NCCOCCOCCOCCOCCOc1ccc([C@@H]2c3ccc(O)cc3CC[C@@H]2c2ccccc2)cc1)c1ccnc(N2CCC3(CCN(c4ccccc4)C3)C2)c1 (stereo partly shown)
% ERα Degradation (at 1 μM) (ERα [1]): A (A: ≥ 70%)

C=CC(=O)N1CCC(Nc2cc(N3CCN(CC)CC3)ncn2)CC1
covalent binding to purified DCAF1 (1058-1396) (DCAF1 (1058-1396) [6]): covalent binders
Covalent binding, Reacted (DCAF1 (1058-1396) [7]): Y

C=CC(=O)N1CC2(C1)CN(c1ncnc(N3CCOCC3)n1)C2
covalent binding to purified DCAF1 (1058-1396) (DCAF1 (1058-1396) [6]): covalent binders
Covalent binding, Reacted (DCAF1 (1058-1396) [7]): Y

O=C(NCCOCCOc1ccc([C@@H]2c3ccc(O)cc3CC[C@@H]2c2ccccc2)cc1)c1ccnc(N2CCC3(CCN(c4ccccc4)C3)C2)c1 (stereo partly shown)
% ERα Degradation (at 1 μM) (ERα [1]): D (D < 20%)

O=C(NCCCOc1ccc([C@@H]2c3ccc(O)cc3CC[C@@H]2c2ccccc2)cc1)c1ccnc(N2CCC3(CCN(c4ccccc4)C3)C2)c1 (stereo partly shown)
% ERα Degradation (at 1 μM) (ERα [1]): C (20% ≤ C < 40%)

O=C(NCCCCCCOc1ccc([C@@H]2c3ccc(O)cc3CC[C@@H]2c2ccccc2)cc1)c1ccnc(N2CCC3(CCN(c4ccccc4)C3)C2)c1 (stereo partly shown)
% ERα Degradation (at 1 μM) (ERα [1]): D (D < 20%)

C=CC(=O)N1CC2(CC(Nc3cccc(N4CCN(CC)CC4)n3)C2)C1
covalent binding to purified DCAF1 (1058-1396) (DCAF1 (1058-1396) [6]): covalent binders
Covalent binding, Reacted (DCAF1 (1058-1396) [7]): Y

CC(=O)c1c(C)c2cnc(Nc3ccc(N4CCNCC4)cn3)nc2n(C2CCCC2)c1=O
cyclin D1 protein levels (cyclin D1 [8]): didn't affect cyclin D1 protein levels dramatically

Fc1cccc(N2CCCC(Nc3cc(N4CCOCC4)ncn3)C2)c1 (stereo not shown)
% CDK4 Degradation (at 1 μM) (CDK4 [9]; 1 μM): D (D < 20%)
% CDK4 degradation (at 10 μM) (CDK4 [9]; 10 μM): D (D < 20%)
% BRD4 Degradation (at 10 μM) (BRD4 [10]): D (D < 20%)
CDK4 protein levels (CDK4 [11]): didn't affect CDK4 proteins levels dramatically
IC50 (MV4;11 cells): > 1000 nM

C[C@]1(O)CCC[C@@H]1n1c(=O)c(C(F)F)cc2cnc(NC3CCN(C(=O)CCOCCOCCN4CCN(c5cc(N[C@@H]6CCCN(c7cccc(F)c7)C6)ncn5)CC4)CC3)nc21
% CDK4 Degradation (at 1 μM) (CDK4 [2]): C (20% ≤ C < 40%)
% Cyclin D1 Degradation (at 1 μM) (cyclin D1 [3]): C (20% ≤ C < 40%)

Oc1ccc2c(c1)CC[C@H](c1ccccc1)[C@@H]2c1ccc(OCCN2CCCC2)cc1
ERα protein levels (ERα [12]): didn't affect ERα protein levels at 1 μM significantly
% ERα Degradation (at 1 μM) (ERα [1]): D (D < 20%)

C[C@]1(O)CCC[C@@H]1n1c(=O)c(C(F)F)cc2cnc(NC3CCN(C(=O)CCCCN4CCN(c5cc(N[C@@H]6CCCN(c7cccc(F)c7)C6)ncn5)CC4)CC3)nc21
% CDK4 Degradation (at 1 μM) (CDK4 [2]): A (A: ≥ 70%)
% Cyclin D1 Degradation (at 1 μM) (cyclin D1 [3]): A (A: ≥ 70%)

CC(C)n1c(C(C)(C)O)nc2c(F)cc(-c3nc(N[C@@H]4CCOC[C@H]4O)ncc3Cl)cc21
cyclin D1 protein levels (cyclin D1 [13]): didn't affect cyclin D1 proteins levels dramatically

O=C(NCCCCOc1ccc([C@@H]2c3ccc(O)cc3CC[C@@H]2c2ccccc2)cc1)c1ccnc(N2CCC3(CCN(c4ccccc4)C3)C2)c1 (stereo partly shown)
% ERα Degradation (at 1 μM) (ERα [1]): C (20% ≤ C < 40%)

C=CC(=O)N1CCC2(C1)CN(c1nc(N3CCOCC3)c3occc3n1)C2
covalent binding to purified DCAF1 (1058-1396) (DCAF1 (1058-1396) [6]): covalent binders
Covalent binding, Reacted (DCAF1 (1058-1396) [7]): Y

Cc1sc2c(c1C)C(c1ccc(Cl)cc1)=N[C@@H](CC(=O)NCCCCCN1CCN(c3cc(N[C@@H]4CCCN(c5cccc(F)c5)C4)ncn3)CC1)c1nnc(C)n1-2
% BRD4 Degradation (at 10 μM) (BRD4 [10]): A (A: ≥ 70%)
BRD4 degradation, time course (BRD4 [14]): Significant degradation of BRD4 were readily detected as early as 4 hours
IC50 (MV4;11 cells): 100 to 300 nM

C[C@]1(O)CCC[C@@H]1n1c(=O)c(C(F)F)cc2cnc(NC3CCN(C(=O)CCOCCOCCOCCN4CCN(c5cc(N[C@@H]6CCCN(c7cccc(F)c7)C6)ncn5)CC4)CC3)nc21
% CDK4 Degradation (at 1 μM) (CDK4 [2]): D (D < 20%)
% Cyclin D1 Degradation (at 1 μM) (cyclin D1 [3]): D (D < 20%)

C=CC(=O)N1CC2(C1)CN(c1cccc(N3CCOCC3)n1)C2
covalent binding to purified DCAF1 (1058-1396) (DCAF1 (1058-1396) [6]): covalent binders
Covalent binding, Reacted (DCAF1 (1058-1396) [7]): Y

C[C@]1(O)CCC[C@@H]1n1c(=O)c(C(F)F)cc2cnc(NC3CCN(C(=O)CN4CCN(c5cc(N[C@@H]6CCCN(c7cccc(F)c7)C6)ncn5)CC4)CC3)nc21
% CDK4 Degradation (at 1 μM) (CDK4 [2]): A (A: ≥ 70%)
% Cyclin D1 Degradation (at 1 μM) (cyclin D1 [3]): A (A: ≥ 70%)

C[C@]1(O)CCC[C@@H]1n1c(=O)c(C(F)F)cc2cnc(NC3CCN(C(=O)CCOCCN4CCN(c5cc(N[C@@H]6CCCN(c7cccc(F)c7)C6)ncn5)CC4)CC3)nc21
% CDK4 Degradation (at 1 μM) (CDK4 [2]): C (20% ≤ C < 40%)
% Cyclin D1 Degradation (at 1 μM) (cyclin D1 [3]): D (D < 20%)

O=C(NCCOCCOCCOc1ccc([C@@H]2c3ccc(O)cc3CC[C@@H]2c2ccccc2)cc1)c1ccnc(N2CCC3(CCN(c4ccccc4)C3)C2)c1 (stereo partly shown)
% ERα Degradation (at 1 μM) (ERα [1]): D (D < 20%)

C[C@]1(O)CCC[C@@H]1n1c(=O)c(C(F)F)cc2cnc(NC3CCN(C(=O)CCCN4CCN(c5cc(N[C@@H]6CCCN(c7cccc(F)c7)C6)ncn5)CC4)CC3)nc21
% CDK4 Degradation (at 1 μM) (CDK4 [2]): A (A: ≥ 70%)
% Cyclin D1 Degradation (at 1 μM) (cyclin D1 [3]): A (A: ≥ 70%)

O=C(NCCCCCOc1ccc([C@@H]2c3ccc(O)cc3CC[C@@H]2c2ccccc2)cc1)c1ccnc(N2CCC3(CCN(c4ccccc4)C3)C2)c1 (stereo partly shown)
% ERα Degradation (at 1 μM) (ERα [1]): D (D < 20%)

Cc1sc2c(c1C)C(c1ccc(Cl)cc1)=N[C@@H](CC(=O)NCCNC(=O)CCCCN1CCN(c3cc(N[C@@H]4CCCN(c5cccc(F)c5)C4)ncn3)CC1)c1nnc(C)n1-2
% BRD4 Degradation (at 10 μM) (BRD4 [10]): A (A: ≥ 70%)
BRD4 degradation, time course (BRD4 [14]): Significant degradation of BRD4 were readily detected as early as 4 hours
IC50 (MV4;11 cells): 100 to 300 nM
